Values quoted from earlier work as cited in patent publication US5124253A, “Dry strip element for the electrochemical detection of theophylline” (Medisense, Inc., priority 1988, dated 1992).
Where “and” joins values, the source holds several entries; their conditions need not be identical. Equal entries are not always repeated.

Details: in vivo; cited from earlier work

Cn1c(=O)c2[nH]cnc2n(C)c1=O [theophylline]
therapeutic range: 10-20 μg/ml and 55-110 μM
